In PubChem BioAssay AID602429 (Sanford-Burnham Center for Chemical Genomics, 2012):
This is a selection; strong and weak results do not stand in their true shares. Calls of active or inactive are those of the source. No stated cut-off is given here; in the data, active means inhibition above about 37%; inactive means the rest.

Chains of the proteins cited; added tags and fusions are not shown.
UniProt P63165, whole entry: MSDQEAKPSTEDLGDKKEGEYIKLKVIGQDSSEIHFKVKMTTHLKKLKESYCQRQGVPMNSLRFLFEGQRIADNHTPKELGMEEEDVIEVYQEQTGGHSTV

Biological target: Small ubiquitin-related modifier 1 (Homo sapiens) (UniProt P63165)
Assay: modulators of SUMO1 protein-protein interactions, primary screen, biochemical, uHTS (AID 602429)
Details: SUMO1 binding to a labelled peptide, TR-FRET, 1 h; at 20 µM; hits give high values

SMILES | inhibition
O=C(NCC1(N2CCCCC2)CCCCC1)c1cccc(C(F)(F)F)c1 | inactive: 3.52%
CCC(c1nnnn1C(C)(C)C)N1CCC(n2c(=O)[nH]c3ccccc32)CC1 (stereo not drawn) | inactive: 1.02%
O=C(NCC1(N2CCOCC2)CCCCC1)c1cc(F)c(F)cc1Cl | inactive: 5.03%
COc1cc(OC)c(C(=O)NCC2(N(C)C)CCCCC2)cc1OC | inactive: -0.683%
CCCCn1nnnc1C(c1ccnc2ccccc12)N1CCC(n2c(=O)[nH]c3ccccc32)CC1 (stereo not drawn) | inactive: -2.38%
CC(C)c1ccc(NC2CCN(C(=O)OC(C)(C)C)CC2)cc1 | inactive: 3.69%
CCCCn1nnnc1C(c1ccccc1OC(F)(F)F)N1CCC(n2c(=O)[nH]c3ccccc32)CC1 (stereo not drawn) | inactive: 2.35%
CN(C)c1cccc(C(=O)NCC2(N3CCCCC3)CCCCC2)c1 | inactive: -1.18%
COc1ccc(CN(CCCl)CCCl)cc1Cl | inactive: 1.95%
COc1ccc(C(c2nnnn2C2CCCC2)N2CCC(n3c(=O)[nH]c4ccccc43)CC2)cc1 (stereo not drawn) | inactive: 9.04%
CCCOc1ccc(C(=O)NCC2(N(C)C)CCCCC2)cc1OC | inactive: 0.693%
Cc1ccc(C(=O)NCC2(N(C)C)CCCCC2)o1 | inactive: -1.71%
CN1CCC(Nc2cccc(F)c2)CC1 | inactive: 1.69%
O=C(NCC1(N2CCCCC2)CCCCC1)c1cncc(Br)c1 | inactive: -0.343%
Cc1cccc(NC2(C#N)CCN(Cc3ccccc3)CC2)c1 | inactive: 4.83%
CSc1ccccc1C(=O)NCC1(N2CCCCC2)CCCCC1 | inactive: -2.19%
CC(C)(C)OC(=O)N1CCC(N(C(=O)c2ccccc2)c2ccc(F)cc2)CC1 | inactive: 5.99%
COc1ccc(C(=O)NCC2(N3CCCCC3)CCCCC2)c(OC)c1OC | inactive: -1.14%
CCC(c1nnnn1C1CCCC1)N1CCC(n2c(=O)[nH]c3ccccc32)CC1 (stereo not drawn) | inactive: -1.62%
COc1ccc(C(=O)NCC2(N3CCCCC3)CCCCC2)cc1 | inactive: -3.14%
O=C(NCC1(N2CCCCC2)CCCCC1)c1cccs1 | inactive: -12.6%
CCCCn1nnnc1C(CC)N1CCC(n2c(=O)[nH]c3ccccc32)CC1 (stereo not drawn) | inactive: -4.22%
CCCCn1nnnc1C(c1cccs1)N1CCC(n2c(=O)[nH]c3ccccc32)CC1 (stereo not drawn) | inactive: -0.199%
O=C(NCC1(N2CCCCC2)CCCCC1)c1ccc(=O)[nH]c1 | inactive: 0.265%

SMILES | inhibition
COc1ccc(Cl)cc1C(=O)NCC1(N2CCOCC2)CCCCC1 | inactive: 0.126%
N#CC1(Nc2ccccc2)CCN(Cc2ccccc2)CC1 | inactive: 6.63%
O=C(NCC1(N2CCCCC2)CCCCC1)c1ccc(Cl)s1 | inactive: 4.08%
O=C(OC1CN2CCC1CC2)C1c2ccccc2Oc2ccccc21 (stereo not drawn) | inactive: 8.72%
O=c1[nH]c2ccccc2n1C1CCN(C(c2cc3ccccc3o2)c2nnnn2C2CCCCC2)CC1 (stereo not drawn) | inactive: -3.78%
CCCCn1nnnc1C(c1ccc(OC)cc1)N1CCC(n2c(=O)[nH]c3ccccc32)CC1 (stereo not drawn) | inactive: 4.69%
CCOC(=O)N1CCC(Nc2ccc(OC)cc2)CC1 | inactive: -1.74%
Cc1cc(C)cc(N(C(=O)c2ccccc2)C2CCN(C(=O)OC(C)(C)C)CC2)c1 | inactive: 0.946%
O=C(NCC1(N2CCCCC2)CCCCC1)c1ccc(Cl)nc1 | inactive: -6.47%
O=c1[nH]c2ccccc2n1C1CCN(C(c2ccccc2OC(F)(F)F)c2nnnn2C2CCCCC2)CC1 (stereo not drawn) | inactive: 0.654%
O=C(NCC1(N2CCOCC2)CCCCC1)c1cc2ccccc2o1 | inactive: -2.52%
COc1ccc(NC2CCN(CCc3ccccc3)CC2)c(OC)c1 | inactive: -2.37%
CCOC(=O)N1CCC(Nc2ccc(F)cc2)CC1 | inactive: 2.91%
O=P1(N(CCCl)CCCl)SCCCS1 | inactive: 2.49%
CCCCn1nnnc1C(c1cc2ccccc2o1)N1CCC(n2c(=O)[nH]c3ccccc32)CC1 (stereo not drawn) | inactive: 10.3%
CCCCOc1ccc(C(=O)NCC2(N3CCOCC3)CCCCC2)cc1 | inactive: -0.56%
O=C(NCC1(N2CCCCC2)CCCCC1)c1ccc(F)cc1 | inactive: -4.06%
O=C1CCN(Cc2ccccc2)CC1 | inactive: -8.59%
CC(C)(C)n1nnnc1C(c1ccccc1)N1CCC(n2c(=O)[nH]c3ccccc32)CC1 (stereo not drawn) | inactive: 3.41%
CCOc1ccc(C)cc1CN(CCCl)CCCl | inactive: -29%
CCOC(=O)N1CCC(Nc2cccc(C)c2)CC1 | inactive: 1.5%
COc1cc(C(=O)NCC2(N(C)C)CCCCC2)ccc1OC(F)F | inactive: -3.76%
O=c1[nH]c2ccccc2n1C1CCN(C(c2cccc3ccccc23)c2nnnn2C2CCCC2)CC1 (stereo not drawn) | inactive: 4.14%
O=c1[nH]c2ccccc2n1C1CCN(C(c2ccccc2)c2nnnn2C2CCCCC2)CC1 (stereo not drawn) | inactive: 6.55%
